According to patent US20230145835A1, “Modulators of Alpha-4-beta-7 Integrin and MAdCAM” (48HD Biopharma Inc., priority 2021, published 2023):

Target: T1, rh-integrin α4β7/LPAM-1 (Homo sapiens, UniProt P13612+P26010)
T1 sequence (P13612 34-977 limits assumed): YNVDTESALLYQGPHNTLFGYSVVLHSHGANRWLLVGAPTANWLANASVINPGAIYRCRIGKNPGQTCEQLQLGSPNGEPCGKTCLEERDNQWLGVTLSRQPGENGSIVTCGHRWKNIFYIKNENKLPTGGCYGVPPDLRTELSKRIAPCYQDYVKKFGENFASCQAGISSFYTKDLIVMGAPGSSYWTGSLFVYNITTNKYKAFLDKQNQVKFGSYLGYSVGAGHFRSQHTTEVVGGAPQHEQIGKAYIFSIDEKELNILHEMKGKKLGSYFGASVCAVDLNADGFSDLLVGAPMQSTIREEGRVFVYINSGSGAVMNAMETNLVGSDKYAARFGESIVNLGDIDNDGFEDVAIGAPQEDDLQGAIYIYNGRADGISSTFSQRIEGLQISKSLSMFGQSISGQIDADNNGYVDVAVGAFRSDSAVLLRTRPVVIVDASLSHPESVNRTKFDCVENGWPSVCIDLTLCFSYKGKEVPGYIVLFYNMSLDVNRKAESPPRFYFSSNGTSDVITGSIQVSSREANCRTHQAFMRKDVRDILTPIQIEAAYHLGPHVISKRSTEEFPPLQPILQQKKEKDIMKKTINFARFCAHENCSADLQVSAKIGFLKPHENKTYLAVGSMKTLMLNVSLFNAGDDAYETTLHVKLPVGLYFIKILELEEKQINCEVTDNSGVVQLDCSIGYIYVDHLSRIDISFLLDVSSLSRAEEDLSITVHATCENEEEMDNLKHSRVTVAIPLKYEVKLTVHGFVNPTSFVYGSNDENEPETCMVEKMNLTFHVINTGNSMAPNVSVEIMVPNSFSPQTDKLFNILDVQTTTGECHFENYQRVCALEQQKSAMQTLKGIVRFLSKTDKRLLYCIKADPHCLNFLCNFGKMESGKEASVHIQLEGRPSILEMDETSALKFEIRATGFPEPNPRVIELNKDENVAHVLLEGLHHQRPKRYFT
T1 sequence (P26010 20-723 limits assumed): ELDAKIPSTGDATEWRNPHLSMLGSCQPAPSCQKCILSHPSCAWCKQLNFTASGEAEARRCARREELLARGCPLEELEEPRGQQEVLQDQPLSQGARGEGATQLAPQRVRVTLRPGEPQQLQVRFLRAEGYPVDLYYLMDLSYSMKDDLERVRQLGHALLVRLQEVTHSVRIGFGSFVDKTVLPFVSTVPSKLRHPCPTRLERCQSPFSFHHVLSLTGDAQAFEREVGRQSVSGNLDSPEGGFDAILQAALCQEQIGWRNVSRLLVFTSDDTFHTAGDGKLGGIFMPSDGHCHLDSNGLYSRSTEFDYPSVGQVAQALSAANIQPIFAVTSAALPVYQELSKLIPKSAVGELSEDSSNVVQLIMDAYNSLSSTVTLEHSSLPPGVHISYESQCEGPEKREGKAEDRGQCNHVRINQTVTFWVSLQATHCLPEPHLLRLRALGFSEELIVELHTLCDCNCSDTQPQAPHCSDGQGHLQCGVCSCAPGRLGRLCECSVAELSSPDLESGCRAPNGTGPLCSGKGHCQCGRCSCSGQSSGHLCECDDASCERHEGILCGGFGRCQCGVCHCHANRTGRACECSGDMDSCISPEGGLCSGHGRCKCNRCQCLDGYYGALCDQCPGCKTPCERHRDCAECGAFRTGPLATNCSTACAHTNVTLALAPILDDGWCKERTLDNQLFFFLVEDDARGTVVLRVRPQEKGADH
Assay: α4β7-MadCAM Competition ELISA (Example 4)
Conditions: IC50, Table 3 Representative compounds; inhibition of MAdCAM binding to coated α4β7
Method: After washing with wash buffer, 200 μL assay buffer was added to each well and incubated for one hour at 28° C. After another wash with wash buffer, 100 μL of a MAdCAM and peptide mixture in assay buffer was added to each well and incubated for one hour at 28° C., followed by washing with wash buffer.

SMILES: CCCC[C@@H]1NC(=O)[C@@H]2CCCN2C(=O)[C@@H]2CSCc3cc(cc(c3)OCCCCCCO/N=C/C(=O)N[C@@H](CCC(N)=O)C(=O)N2)CSC[C@@H](C(N)=O)NC(=O)[C@H]([C@@H](C)O)NC(=O)[C@H](C)NC(=O)[C@H]([C@@H](C)CC)NC(=O)[C@H](CC(=O)O)NC1=O [compound 64, TSL6-SQCP{Nle}DIATC]
- IC50: 10.7 µM
